Assays:
Mu-type opioid receptor = Mu-type opioid receptor (Homo sapiens, UniProt P35372); assay: Human mu-Opioid Receptor Radioligand Assay: To investigate binding properties of test compounds to human μ-opioid receptor, transfected CHO-K1 cell membranes and [3H]-DAMGO (Perkin Elmer, ES-542-C), as the radioligand, were used. The assay was carried out with 20 μg of membrane suspension, 1 nM of [3H]-DAMGO in either absence or presence of either buffer or 10 μM Naloxone for total and non-specifi
[1] = molecular target: Voltage-dependent calcium channel subunit alpha-2/delta-1 (Homo sapiens, UniProt P54289)

Sequences of proteins named here, by UniProt entry; tags and fusion partners are left off. Residues count along the entry.
UniProt P35372, whole entry: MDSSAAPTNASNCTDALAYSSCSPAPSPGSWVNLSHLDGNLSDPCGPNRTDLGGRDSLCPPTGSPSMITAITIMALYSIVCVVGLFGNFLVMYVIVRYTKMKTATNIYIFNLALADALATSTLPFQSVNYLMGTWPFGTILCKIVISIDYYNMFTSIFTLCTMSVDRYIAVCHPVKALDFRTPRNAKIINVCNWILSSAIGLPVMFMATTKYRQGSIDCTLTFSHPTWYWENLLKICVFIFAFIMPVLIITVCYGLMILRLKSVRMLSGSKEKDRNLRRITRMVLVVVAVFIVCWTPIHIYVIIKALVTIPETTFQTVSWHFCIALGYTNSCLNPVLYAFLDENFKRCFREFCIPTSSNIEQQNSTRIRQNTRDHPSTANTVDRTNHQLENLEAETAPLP
UniProt P54289, 25-956 limits assumed: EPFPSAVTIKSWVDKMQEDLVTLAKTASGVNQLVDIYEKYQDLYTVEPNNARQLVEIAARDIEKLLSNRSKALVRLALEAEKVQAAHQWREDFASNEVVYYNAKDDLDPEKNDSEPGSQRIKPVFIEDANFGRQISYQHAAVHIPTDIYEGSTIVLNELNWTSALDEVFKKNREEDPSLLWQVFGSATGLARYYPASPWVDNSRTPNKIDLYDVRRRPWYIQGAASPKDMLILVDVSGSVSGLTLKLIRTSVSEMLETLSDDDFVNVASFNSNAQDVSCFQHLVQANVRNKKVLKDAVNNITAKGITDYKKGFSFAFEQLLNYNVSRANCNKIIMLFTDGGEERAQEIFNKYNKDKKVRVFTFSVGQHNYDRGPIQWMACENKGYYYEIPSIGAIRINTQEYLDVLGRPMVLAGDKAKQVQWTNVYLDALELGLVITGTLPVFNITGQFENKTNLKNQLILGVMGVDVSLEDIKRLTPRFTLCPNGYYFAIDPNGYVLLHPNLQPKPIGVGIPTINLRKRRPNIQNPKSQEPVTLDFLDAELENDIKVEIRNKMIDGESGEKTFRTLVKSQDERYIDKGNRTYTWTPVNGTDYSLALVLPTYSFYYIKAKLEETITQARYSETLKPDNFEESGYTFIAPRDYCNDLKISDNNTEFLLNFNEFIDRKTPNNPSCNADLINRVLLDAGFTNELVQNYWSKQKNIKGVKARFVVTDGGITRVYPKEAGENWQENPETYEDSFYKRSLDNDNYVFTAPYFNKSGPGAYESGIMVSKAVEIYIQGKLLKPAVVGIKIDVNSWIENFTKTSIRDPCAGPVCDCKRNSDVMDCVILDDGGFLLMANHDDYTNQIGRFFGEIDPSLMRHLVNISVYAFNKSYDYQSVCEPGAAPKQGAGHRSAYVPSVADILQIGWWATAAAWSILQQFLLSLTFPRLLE
UniProt P54289, 957-1103 limits assumed: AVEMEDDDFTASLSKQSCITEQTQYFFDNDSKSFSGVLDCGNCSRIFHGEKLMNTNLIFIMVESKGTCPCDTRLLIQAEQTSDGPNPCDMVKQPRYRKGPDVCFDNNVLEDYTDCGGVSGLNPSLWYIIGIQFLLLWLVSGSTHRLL

**Q.** With `CN(CCN(C(=O)c1cccs1)c1ccn(-c2ccccc2)n1)Cc1ccccn1` as the compound, how does the Ki (Mu-type opioid receptor) read?
**A.** 100 to 500 nM

**Q.** How did the Ki [1] turn out when `O=C(c1cccs1)N(c1cncc(-c2ccc(F)cc2)n1)C1CCNCC1` was run?
**A.** > 5000 nM

**Q.** And the Ki (Mu-type opioid receptor)?
**A.** > 500 nM

Source: ChEMBL document CHEMBL5727553
